*1 amine or outer side, *2 acyl side, *3 side chain or, on linkers, in order; H or OH if unused. Where a SMILES comes first, the peptide text is derived from it. Bridges are numbered along the chain shown (N, C = ends). X4 = CCOC(=O)CN(C)c1nc(CC[*:1])cc(CC[*:2])n1
What was measured:
[1] = biological target: T1, human Keap1 Kelch domain (A321-T609) (Homo sapiens, UniProt Q14145); test: Surface plasmon resonance (SPR) direct binding assay, immobilised Keap1 Kelch domain; details: Table 2; for Kd: geometric mean ± sd of at least two independent repeats
T1 construct: human Keap1 Kelch domain (A321-T609) fused with N-terminal 6x His-tag; 6xHis (N); made in house
Text: (§1) We based the design of our Nrf2-like cyclic peptides around the amino acid sequence of the ETGE motif (namely 12-mer ^73QLQLDEETGEF^84L) and SAR studies reported in the literature.[9,10,12,14] The […] motif is known to adopt a beta-turn conformation upon binding to Keap1. Residues Q73-Q75 and L85 stabilise the bound conformation, L76-D77 and E79-G81 bind deep into the pocket with E79 and E82 forming electrostatic interactions with Keap1 and D77 and T80 stabilising the beta-turn via H-bonds with E78 not contributing to the binding. In particular, our peptides aim to retain the beta-turn conformation and featured the E78P mutation which has been reported to improve the binding affinity.[9] […] The ability of the cyclic peptides to bind to the Kelch domain of Keap1 was evaluated using surface plasma resonance (SPR), where the Kelch domain is immobilised onto a SPR sensor chip. Additionally, we assessed the ability of the peptides to inhibit the PPI between Nrf2 and the Kelch domain of Keap1 using a time-resolved FRET (TR-FRET) assay. Here, the IC50 for inhibition of the interaction between the human Keap1 Kelch domain and an Nrf2-ETGE peptide is measured.
(§2) Surface Plasmon Resonance (SPR)
(§3) Peptide affinities to the Kelch domain of Keap1 is determined in a direct binding assay using 8K surface plasmon resonance (SPR) biosensor (Cytiva) at 20°C. Immobilization of Keap1 Kelch domain on a CM5 sensor chip (Cytiva) is performed using standard amine coupling procedure. The surface is washed with 10mM NaOH, 1M NaCl before activated with EDC/NHS (Cytiva), followed by immobilization of human Keap1 Kelch domain (A321-T609) fused with N-terminal 6x His-tag7 (in 10 mM MES, pH=6.4).
(§4) Finally, the surface is deactivated by Ethanolamine. Immobilization levels are typically 5000-6000 RU.
(§5) The reference spot is treated as described, omitting the injection of Keap1. Compound concentration series are injected over the immobilized protein in increasing concentrations using single cycle kinetics (SCK) in running buffer (10 mM HEPES, 150 mM NaCl, 0.05% Tween20, 1 mM TCEP, pH 7.4). A 1:1 Langmuir interaction model is fitted to the experimental traces, enabling determination of kon, koff and […]
(§6) In the time-resolved Förster resonance energy transfer (TR-FRET) assay8 the IC50 of inhibitors which are able to inhibit the interaction between the Keap1-Kelch domain and a Nrf2 derived ETGE peptide are determined. The TR-FRET is measured between a Tb-labelled mAb (Anti—6-His, Tb cryptate Gold, CisBio 61H12TLB) that binds to Keap 1 Kelch domain and d2-labelled SA-biotin-peptide.
(§7) The assay was performed in 384-well white low-volume, medium binding plates (Greiner Bio One, Austria) in 20 mM HEPES pH 7.5, 150 mM NaCl, 2 mM GSH (Sigma-Aldrich, USA),1mM EDTA (Sigma-Aldrich, USA), and 0.01% Pluronic F127 (MilliporeSigma, USA), with a final reaction volume of 10 µL.
(§8) To determine the ability of synthesized peptide to inhibit PPI between the Keap1 Kelch domain and Nrf2, 1nM purified human Keap1 Kelch domain (A321-T609) fused with N-terminal 6x His-tag, 5 nM biotinylated Nrf2 peptide ([…], Genescript, USA), d2-labeled streptavidin (Revvity, USA), and […] anti-His monoclonal antibody tagged with terbium cryptate (Revvity, USA), were incubated in the presence of varying concentrations of investigated peptides for 3 h at room […]
(§9) 7 Li X, Zhang D, Hannink M, Beamer LJ. Crystallization and initial crystallographic analysis of the Kelch domain from human Keap1. Acta
(§10) 8 S. Lee, D. Ali Abed, L. J. Beamer, L. Hu, Development of a Homogeneous Time-Resolved Fluorescence Resonance Energy Transfer (TR-
FRET) Assay for the Inhibition of Keap1–Nrf2 Protein–Protein Interaction, SLAS Discovery, 26, 1, 2021, Pages 100-112, ISSN 2472-

By UniProt entry, the sequences of proteins in these tests, tags left out. Residues count along the entry.
UniProt Q14145, 321-609: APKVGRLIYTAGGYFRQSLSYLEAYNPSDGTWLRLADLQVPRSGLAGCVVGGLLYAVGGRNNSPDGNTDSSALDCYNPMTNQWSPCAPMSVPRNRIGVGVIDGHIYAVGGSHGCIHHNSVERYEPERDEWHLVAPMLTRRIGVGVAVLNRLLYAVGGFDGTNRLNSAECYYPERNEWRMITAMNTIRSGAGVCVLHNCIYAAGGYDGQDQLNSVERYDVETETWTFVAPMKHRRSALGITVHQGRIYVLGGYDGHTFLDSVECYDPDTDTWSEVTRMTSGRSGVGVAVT
UniProt Q14145, whole entry: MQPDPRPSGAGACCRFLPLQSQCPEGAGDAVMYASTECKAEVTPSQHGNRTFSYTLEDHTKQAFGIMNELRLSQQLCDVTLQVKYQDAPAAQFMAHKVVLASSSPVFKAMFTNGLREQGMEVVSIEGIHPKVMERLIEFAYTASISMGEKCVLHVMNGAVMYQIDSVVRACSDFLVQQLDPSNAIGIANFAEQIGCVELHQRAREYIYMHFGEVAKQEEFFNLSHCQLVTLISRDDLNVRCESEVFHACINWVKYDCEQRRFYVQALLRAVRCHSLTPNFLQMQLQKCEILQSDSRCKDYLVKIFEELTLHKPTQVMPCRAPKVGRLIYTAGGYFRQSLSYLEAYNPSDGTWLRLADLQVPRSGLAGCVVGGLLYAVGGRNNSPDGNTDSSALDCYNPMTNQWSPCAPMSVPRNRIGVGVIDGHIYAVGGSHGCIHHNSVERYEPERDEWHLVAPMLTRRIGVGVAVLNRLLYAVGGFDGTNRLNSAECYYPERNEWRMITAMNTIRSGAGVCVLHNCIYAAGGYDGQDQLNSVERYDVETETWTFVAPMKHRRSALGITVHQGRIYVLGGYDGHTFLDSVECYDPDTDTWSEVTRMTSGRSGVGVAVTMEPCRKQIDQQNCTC

[2] = biological target: T2, interaction between the human Keap1 Kelch domain and an Nrf2-ETGE peptide (Homo sapiens, UniProt Q14145); test: Keap1-Nrf2 TR-FRET (HTRF) assay; assay type: binding; details: Table 2; IC50, minimum of three repeats; read-out: TR-FRET
T2 construct: 1nM purified human Keap1 Kelch domain (A321-T609) fused with N-terminal 6x His-tag; made in house
Text: as §1, §2, §3, §4, §5, §6, §7, §8, §9, §10
FRET) Assay for the Inhibition of Keap1–Nrf2 Protein–Protein Interaction, SLAS Discovery, 26, 1, 2021, Pages 100-112, ISSN 2472- […]
Following the incubation, the PHERAstar FSX […] microplate reader was used to measure the acceptor and donor emissions at 665 nm and 620 nm, respectively. The acceptor/donor ratio was used to calculate relative energy transfer. […]

[3] = biological target: NQO1 gene expression in BEAS-2B cells (Homo sapiens); test: BEAS-2B NQO1 assay (qPCR of NQO1 mRNA); assay type: cell-based; details: EC50 of NQO1 mRNA upregulation, 24 h, medium without FBS, read-out: BEAS2b
Text: The effect of peptides on Nrf2-dependent gene expression was investigated in BEAS-2B cells, where we determined the upregulation of the mRNA of NAD(P)H quinone dehydrogenase (NQO1) by qPCR. The expression of NQO1 is Nrf2-dependent and it is one of the two major quinone reductases, which play a crucial role in protecting cells from oxidative stress.[40] ^§§ In the context of this study we chose BEAS-2B cells as a representative model for epithelial cells. The presence of serum has been reported to affect BEAS-2B cell phenotype. Specifically, exposure of BEAS-2B to FBS has been associated with squamous differentiation, alteration in cytokine secretion and response to toxicants.[42–44] […] The lack of activity of the peptides is unsurprising considering the overall negative net charge, which will obstruct their cellular uptake. In order to improve the cellular uptake, we took of advantage of the 2C-PS moiety, which not only allows the easy synthesis of a variety of macrocycles of different ring sizes, but also permits the facile introduction of a diverse set of moieties, which could enhance cell permeability. We pursued a diverse set of strategies to make the Keap1 peptide more cell permeable, namely: masking of the acidic amino acids with methyl esters, introduction of polyarginine peptides, GWWG-polyarginine peptides or a long-chain fatty acid tag onto the staple, as well as peptide shortening and a combination of these. The rationale behind these strategies is explained herein, and details of their synthesis can be found in the ESI. ^†
Cellular Biology Experimental
(Thermo Fisher Scientific, USA).
calculated using QunatStudio 7 software.

## CCOC(=O)CN(C)c1nc2cc(n1)CCSC[C@@H](C(=O)N[C@@H](CC(C)C)C(N)=O)NC(=O)[C@H](CCC(=O)O)NC(=O)CNC(=O)[C@H]([C@@H](C)O)NC(=O)[C@H](CCC(=O)OC)NC(=O)[C@@H]1CCCN1C(=O)[C@H](CC(=O)OC)NC(=O)[C@H](CC(C)C)NC(=O)[C@H](CCC(N)=O)NC(=O)[C@H](CC(C)C)NC(=O)[C@@H](NC(C)=O)CSCC2 [Peptide P5-F] (Ac-CLQLD(OMe)PE(OMe)TGECL-NH2; linker 1-11 via X4)
[1]
  koff: 0.01 s⁻¹
  kon: 3600 M⁻¹ s⁻¹

## CCOC(=O)CN(C)c1nc2cc(n1)CCSC[C@@H](C(=O)N[C@@H](CC(C)C)C(N)=O)NC(=O)[C@H](CCC(=O)OC)NC(=O)CNC(=O)[C@H]([C@@H](C)O)NC(=O)[C@H](CCC(=O)OC)NC(=O)[C@@H]1CCCN1C(=O)[C@H](CC(=O)O)NC(=O)[C@H](CC(C)C)NC(=O)[C@H](CCC(N)=O)NC(=O)[C@H](CC(C)C)NC(=O)[C@@H](NC(C)=O)CSCC2 [Peptide P6-F] (Ac-CLQLDPE(OMe)TGE(OMe)CL-NH2; linker 1-11 via X4; N-terminus assumed)
[1]
  koff: 4.6 s⁻¹
  kon: 3.8e+06 M⁻¹ s⁻¹

## CCOC(=O)CN(C)c1nc2cc(n1)CCSC[C@@H](C(=O)N[C@@H](CC(C)C)C(N)=O)NC(=O)[C@H](CCC(=O)OC)NC(=O)CNC(=O)[C@H]([C@@H](C)O)NC(=O)[C@H](CCC(=O)OC)NC(=O)[C@@H]1CCCN1C(=O)[C@H](CC(=O)OC)NC(=O)[C@H](CC(C)C)NC(=O)[C@H](CCC(N)=O)NC(=O)[C@H](CC(C)C)NC(=O)[C@@H](NC(C)=O)CSCC2 [Peptide P7-F] (Ac-CLQLD(OMe)PE(OMe)TGE(OMe)CL-NH2; linker 1-11 via X4)
[2]
  IC50: 693 ± 1.3 nM
[1]
  koff: 0.0066 s⁻¹
  kon: 2100 M⁻¹ s⁻¹
  Kd: 2950 ± 1.8 nM
[3]
  EC50: > 10000 nM

## CCOC(=O)CN(C)c1nc2cc(n1)CCSC[C@@H](C(=O)N[C@@H](CC(C)C)C(N)=O)NC(=O)[C@H](CCC(=O)O)NC(=O)CNC(=O)[C@H]([C@@H](C)O)NC(=O)[C@H](CCC(=O)O)NC(=O)[C@@H]1CCCN1C(=O)[C@H](CC(=O)O)NC(=O)[C@@H](NC(C)=O)CSCC2 [Peptide P8-F]
[2]
  IC50: 6.8 ± 1.2 nM
[1]
  koff: 0.016 s⁻¹
  kon: 150000 M⁻¹ s⁻¹
  Kd: 100 ± 1 nM
[3]
  EC50: > 10000 nM

## CC(=O)N[C@H]1CSCCc2cc(nc(NCCOCCOCc3cn(CCCCC(=O)NCC(=O)N[C@@H](Cc4c[nH]c5ccccc45)C(=O)N[C@@H](Cc4c[nH]c5ccccc45)C(=O)NCC(=O)N[C@H](CCCNC(=N)N)C(=O)N[C@H](CCCNC(=N)N)C(=O)N[C@H](CCCNC(=N)N)C(N)=O)nn3)n2)CCSC[C@@H](C(=O)N[C@@H](CC(C)C)C(N)=O)NC(=O)[C@H](CCC(=O)O)NC(=O)CNC(=O)[C@H]([C@@H](C)O)NC(=O)[C@H](CCC(=O)O)NC(=O)[C@@H]2CCCN2C(=O)[C@H](CC(=O)O)NC1=O [Peptide P8-G]
[2]
  IC50: 1.9 ± 1.6 nM
[1]
  koff: 0.0046 s⁻¹
  kon: 1.2e+06 M⁻¹ s⁻¹
  Kd: 4.6 ± 1.4 nM
[3]
  EC50: > 10000 nM

— paper PMC10566475, “A cell-active cyclic peptide targeting the Nrf2/Keap1 protein–protein interaction” (Chemical Science, 2023)
